Earlier results, collected in patent US5389645A, “Substituted tyrosyl diamine amide compounds” (G. D. Searle & Co., priority 1992, dated 1995).

Test system: opioid receptors, designated μ, κ and δ
Details: cited from earlier work

C=CCN1CC[C@]23c4c5ccc(O)c4O[C@H]2C(=O)CC[C@@]3(O)[C@H]1C5 [naloxone]
binding affinity for all three categories of opioid receptors: bind with high affinity to all three categories of opioid receptors
